The values that follow come from patent US20070072830A1, “Methods for treating diabetes” (Point Therapeutics, Inc., priority 2004, published 2007).

Sequences of proteins named here, by UniProt entry; tags and fusion partners are left off. Residues count along the entry.
UniProt P14740, 37-767 limits assumed: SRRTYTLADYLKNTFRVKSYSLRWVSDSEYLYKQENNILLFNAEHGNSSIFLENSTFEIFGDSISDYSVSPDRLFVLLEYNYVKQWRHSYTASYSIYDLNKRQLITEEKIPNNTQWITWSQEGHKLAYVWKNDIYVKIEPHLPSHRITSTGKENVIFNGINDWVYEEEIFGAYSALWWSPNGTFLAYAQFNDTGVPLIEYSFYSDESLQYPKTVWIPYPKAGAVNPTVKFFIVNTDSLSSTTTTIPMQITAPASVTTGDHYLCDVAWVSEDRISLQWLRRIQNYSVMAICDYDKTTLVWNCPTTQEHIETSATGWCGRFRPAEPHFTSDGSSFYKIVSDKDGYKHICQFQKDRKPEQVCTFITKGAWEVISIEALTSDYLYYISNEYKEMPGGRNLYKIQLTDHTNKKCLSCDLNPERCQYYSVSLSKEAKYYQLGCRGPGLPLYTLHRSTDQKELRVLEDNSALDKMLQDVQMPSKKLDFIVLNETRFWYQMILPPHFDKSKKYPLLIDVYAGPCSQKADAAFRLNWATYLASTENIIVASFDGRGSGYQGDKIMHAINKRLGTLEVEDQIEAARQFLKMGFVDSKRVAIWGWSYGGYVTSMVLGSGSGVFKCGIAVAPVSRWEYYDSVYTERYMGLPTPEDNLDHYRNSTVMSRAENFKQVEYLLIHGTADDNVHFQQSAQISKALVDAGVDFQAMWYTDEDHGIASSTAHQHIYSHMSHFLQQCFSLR

For the assay, the target named is plasma DPP-IV (Rattus norvegicus, UniProt P14740). The conditions noted are these: Zucker rats, 10 μmol/kg oral.

Structures are written as SMILES.

Regarding `N[C@@H](CCC(=O)O)C(=O)N1CCC[C@H]1B(O)O` [Glu-boroPro], the “Inhibition of plasma DPP-IV activity at t−5 min” value was “Marked inhibition” and the “Inhibition of plasma DPP-IV activity by t0” value is “maximal inhibition”.
